## Yeast mating assay 1: variants of the scFv Ab-14

Values reported by Engelhart et al. 2022, doi:10.1038/s41597-022-01779-4 (FLAb copy).

Target peptide (SARS-CoV-2 spike, HR2 region): PDVDLGDISGINAS

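Phage display of a naive human antibody library on the peptide gave the parent. AAYL50 was designed without a model: most single CDR substitutions and a random sample of double and triple ones. The scFvs were displayed on barcoded MATa yeast, the peptide on MATalpha yeast. Mating (16 h, 30 °C) was followed by selection of diploids and sequencing of their barcodes. Scores were corrected for input abundance and mapped to Kd with protein pairs of known affinity run in the same pool. Mating was done three times.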

Each scFv is VH, a 15-residue (Gly4Ser)3 linker, VL, as in the parent Ab-14, and differs from it in the CDRs of the light chain only.
VH: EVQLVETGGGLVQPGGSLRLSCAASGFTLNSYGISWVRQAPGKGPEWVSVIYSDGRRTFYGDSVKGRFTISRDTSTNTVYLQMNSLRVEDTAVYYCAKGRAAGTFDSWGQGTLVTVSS
VL: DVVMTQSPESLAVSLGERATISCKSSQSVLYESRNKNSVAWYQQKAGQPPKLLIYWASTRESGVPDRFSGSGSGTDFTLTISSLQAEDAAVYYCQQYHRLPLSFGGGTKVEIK

Variants are written as CDR1, CDR2 and CDR3 of the light chain (limits as in the source). Parent: KSSQSVLYESRNKNSVA, WASTRES, QQYHRLPLS.
Values are log10 of the apparent Kd in nM; lower means stronger binding.
Averages over replicates are reported, and they cover detected replicates only.
A pair that was not seen in that replicate is written "nd"; this usually means weak binding, but a binder can also be missed.
Parent in this assay: reference entry 0.65, copy in this library 1.68.
Three control strains display no target. For library AAYL50, 18% of the pairings with them gave a signal, with a median of 4.19 and one signal in twenty below 2.99, so weak values seen in few replicates may be background. For each scFv, signals with the empty controls are counted beside the result, with their mean in brackets.

CDR-L1	CDR-L2	CDR-L3	log10 Kd, replicates	mean log10 Kd (nM)	empty controls
KSSQSVLYESRNKNSGA	TASTRES	QQYHRLPLS	nd nd nd	nd	1 of 9 (3.18)
KSSQSVRYESRFKNSVW	WASTRES	QQYHRLPLS	4.53 nd 4.28	4.41	4 of 9 (4.83)
KSSQSVLYESRWKNSVA	WASTRES	QQSHRKPLS	4.47 nd nd	4.47	3 of 9 (4.59)
KSSGSVLYESRNKNSVA	AASTRES	QQYHRKPLS	nd nd nd	nd	1 of 9 (5.23)
AFSQSVLYASRNKNSVA	WASTRES	QQYHRLPLS	0.49 0.69 0.59	0.59	2 of 9 (5.15)
KSSQSVLYESRNKNSWA	WASTVWS	QQYHRLPLS	nd nd nd	nd	1 of 9 (3.20)
KSSQSVLYESRNKNNCA	WAPTRES	QQYHRLPLS	nd nd nd	nd	1 of 9 (3.71)
KSSQSVLYESRNKNSVA	WASTFCS	AQYHRLPLS	nd nd nd	nd	0 of 9
KSSQFVLYPSRNKNSVA	WASTRES	QQYHRLPLS	nd nd 3.12	3.12	2 of 9 (3.97)
KSSQSVLYESRFKNSVA	WASTRLS	QQYHRPPLS	1.15 1.26 1.25	1.22	5 of 9 (5.00)
KSLQSVLYESRNKNSVA	WAKTDES	QQYHRLPLS	nd nd nd	nd	0 of 9
KSSQFVLYESRNKNSVA	WASTSQS	QQYHRLPLS	1.99 2.23 2.27	2.16	3 of 9 (3.68)
KSSQSVLYESRNKNSVL	FASTRED	QQYHRLPLS	nd 4.25 5.31	4.78	2 of 9 (4.20)
KSSQSELYESRNKNSVA	WASTRES	QQQHRLELS	nd nd nd	nd	1 of 9 (3.24)
KSSQSVLYESRKKNSKA	WASTRES	QQYHRLLLS	6.74 4.51 4.91	5.39	3 of 9 (4.92)
KGQQSVLYESRNKNSVA	WASTRES	WQYHRLPLS	1.86 1.71 2.16	1.91	5 of 9 (4.66)
KSSQWVLYRSRNKNSVA	WASTRES	QQYHQLPLS	2.89 2.60 2.55	2.68	2 of 9 (4.71)
KSSQSVLYESINKQSVA	WASTRES	QEYHRLPLS	2.20 2.15 2.84	2.40	1 of 9 (3.17)
KSHQSVLYESRNKNSVA	WASTRES	QQYHRSPHS	1.81 2.14 2.07	2.01	3 of 9 (3.73)
KSSQSVLYESRNKESVA	WASTRES	QQYHKLPLG	2.83 1.82 2.00	2.21	5 of 9 (3.83)
KSSQSVLYESRNKNSVA	WDSTRES	DQYHRLPLS	3.31 4.14 3.23	3.56	2 of 9 (4.55)
KSSQSVEYESRNKNFVA	PASTRES	QQYHRLPLS	nd 3.97 4.14	4.06	4 of 9 (4.82)
KSSQSVRYESRNKNPVA	WASTREF	QQYHRLPLS	nd nd nd	nd	0 of 9
KSSQSVLYESRNKNSVA	WASTRIS	QWGHRLPLS	nd 3.97 nd	3.97	2 of 9 (4.33)
KSSQCILYESRNKNSVA	WATTRES	QQYHRLPLS	nd 3.05 nd	3.05	5 of 9 (4.05)
KQHQSVLYESRNKNSFA	WASTRES	QQYHRLPLS	4.87 5.16 4.80	4.95	2 of 9 (4.52)
KSSHSVLYESINKNSVA	WTSTRES	QQYHRLPLS	0.94 0.90 0.86	0.90	0 of 9
KSSQSKLYESRNKNSVA	WPSTRES	QDYHRLPLS	nd 4.27 nd	4.27	4 of 9 (4.27)
KASQSVCYESRNKNSVA	WASTRES	QQYHRLPPS	nd 3.64 4.80	4.22	4 of 9 (5.01)
KSSQSVLYESRNKNSVA	WASTRES	WQYHRLPLY	nd nd nd	nd	0 of 9
KSSQSVLYEKRNKNEVA	WASTRES	QQYHRLPFS	nd nd nd	nd	1 of 9 (4.48)
KSSQSVHYESRNKNSMA	WASQRES	QQYHRLPLS	1.72 1.77 1.51	1.67	0 of 9
KSYQSVLHESRNKNSVA	WASSRES	QQYHRLPLS	2.85 2.54 3.37	2.92	0 of 9
KSSNSVLYESRNKNSVA	WASTRES	QQYHRLPVD	1.95 2.05 1.74	1.91	4 of 9 (4.14)

Excerpt, the final 3 entries:

CDR-L1	CDR-L2	CDR-L3	log10 Kd, replicates	mean log10 Kd (nM)	empty controls
KSSQSVHYESRNKNSMA	WASQRES	QQYHRLPLS	1.72 1.77 1.51	1.67	0 of 9
KSYQSVLHESRNKNSVA	WASSRES	QQYHRLPLS	2.85 2.54 3.37	2.92	0 of 9
KSSNSVLYESRNKNSVA	WASTRES	QQYHRLPVD	1.95 2.05 1.74	1.91	4 of 9 (4.14)